Test results as given in ChEMBL document CHEMBL1138646, “Carbonic anhydrase inhibitors: inhibition of the membrane-bound human isozyme IV with anions” (Bioorg Med Chem Lett, 2004).

Protein sequences, listed by entry. Tags and fused reporters are not part of them. Residues count along the entry.
UniProt P22748, 19-284 limits assumed: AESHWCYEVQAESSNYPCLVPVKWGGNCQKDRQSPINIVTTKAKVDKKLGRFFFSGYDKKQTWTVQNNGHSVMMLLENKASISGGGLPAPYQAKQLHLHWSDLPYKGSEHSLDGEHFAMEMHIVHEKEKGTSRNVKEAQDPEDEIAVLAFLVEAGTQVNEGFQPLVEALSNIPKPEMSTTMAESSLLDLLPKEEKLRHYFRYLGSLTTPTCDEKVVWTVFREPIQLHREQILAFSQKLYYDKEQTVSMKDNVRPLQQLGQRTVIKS

Biological target: Carbonic anhydrase 4 (Homo sapiens, UniProt P22748)
Assay: Inhibition constant against human carbonic anhydrase isozyme hCA IV

## O=[As](O)(O)c1ccccc1
  Ki: 0.87 µM
